From publication PMC6747318, “Mutual Enhancement of Opioid and Adrenergic Receptors by Combinations of Opioids and Adrenergic Ligands Is Reflected in Molecular Complementarity of Ligands: Drug Development Possibilities” (International Journal of Molecular Sciences, 2019)
Structures can show the parent of a compound that is named as a salt.

By UniProt entry, the sequences of proteins in these tests, tags left out. Where a name states a change or a piece, a line headed by the entry shows the natural chain unless it says otherwise.
UniProt P06213: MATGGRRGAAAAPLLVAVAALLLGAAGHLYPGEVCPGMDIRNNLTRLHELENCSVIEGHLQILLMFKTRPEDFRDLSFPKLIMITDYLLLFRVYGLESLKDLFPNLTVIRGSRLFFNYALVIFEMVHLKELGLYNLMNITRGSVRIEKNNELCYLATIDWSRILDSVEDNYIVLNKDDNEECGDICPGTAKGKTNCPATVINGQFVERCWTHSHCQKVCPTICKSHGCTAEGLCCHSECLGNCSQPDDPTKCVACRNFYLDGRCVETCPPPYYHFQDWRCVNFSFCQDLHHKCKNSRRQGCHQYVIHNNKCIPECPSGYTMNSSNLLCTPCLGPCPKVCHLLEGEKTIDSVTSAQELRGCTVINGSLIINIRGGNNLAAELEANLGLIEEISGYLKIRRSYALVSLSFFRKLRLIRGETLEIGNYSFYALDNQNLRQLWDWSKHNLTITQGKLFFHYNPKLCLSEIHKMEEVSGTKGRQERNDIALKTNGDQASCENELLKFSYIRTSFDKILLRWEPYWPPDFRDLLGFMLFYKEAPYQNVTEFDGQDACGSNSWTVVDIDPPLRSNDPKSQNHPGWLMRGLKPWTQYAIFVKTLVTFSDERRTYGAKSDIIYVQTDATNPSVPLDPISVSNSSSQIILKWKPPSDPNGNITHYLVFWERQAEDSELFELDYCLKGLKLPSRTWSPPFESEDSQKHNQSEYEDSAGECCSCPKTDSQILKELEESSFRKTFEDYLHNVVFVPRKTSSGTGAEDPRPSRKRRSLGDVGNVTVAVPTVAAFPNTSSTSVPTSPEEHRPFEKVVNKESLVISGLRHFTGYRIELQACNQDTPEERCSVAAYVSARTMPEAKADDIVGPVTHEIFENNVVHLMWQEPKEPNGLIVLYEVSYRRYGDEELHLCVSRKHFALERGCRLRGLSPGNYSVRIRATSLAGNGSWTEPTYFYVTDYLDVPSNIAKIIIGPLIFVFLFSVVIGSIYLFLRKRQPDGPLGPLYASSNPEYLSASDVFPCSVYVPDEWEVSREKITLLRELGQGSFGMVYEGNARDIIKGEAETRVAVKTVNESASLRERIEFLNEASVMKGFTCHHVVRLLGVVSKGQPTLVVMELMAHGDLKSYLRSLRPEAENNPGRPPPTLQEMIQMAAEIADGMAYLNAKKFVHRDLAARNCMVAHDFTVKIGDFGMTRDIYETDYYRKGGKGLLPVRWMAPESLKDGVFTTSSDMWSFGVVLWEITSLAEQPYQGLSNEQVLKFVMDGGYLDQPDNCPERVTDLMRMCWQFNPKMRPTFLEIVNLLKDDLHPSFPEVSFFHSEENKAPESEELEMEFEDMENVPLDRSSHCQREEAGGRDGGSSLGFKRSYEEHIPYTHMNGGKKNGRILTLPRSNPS
UniProt P21728: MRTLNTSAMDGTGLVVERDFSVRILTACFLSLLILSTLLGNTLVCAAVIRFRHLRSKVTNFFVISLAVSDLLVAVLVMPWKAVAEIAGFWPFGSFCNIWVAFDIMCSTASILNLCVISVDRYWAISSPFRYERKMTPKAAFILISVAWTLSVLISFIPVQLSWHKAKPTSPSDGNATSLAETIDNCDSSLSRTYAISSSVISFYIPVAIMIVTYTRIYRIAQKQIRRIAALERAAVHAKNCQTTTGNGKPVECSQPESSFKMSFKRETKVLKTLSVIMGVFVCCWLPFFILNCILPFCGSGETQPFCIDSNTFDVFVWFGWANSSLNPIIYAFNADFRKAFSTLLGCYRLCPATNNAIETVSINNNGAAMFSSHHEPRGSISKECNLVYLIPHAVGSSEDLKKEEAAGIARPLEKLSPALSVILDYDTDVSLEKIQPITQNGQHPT
UniProt P35372, whole entry: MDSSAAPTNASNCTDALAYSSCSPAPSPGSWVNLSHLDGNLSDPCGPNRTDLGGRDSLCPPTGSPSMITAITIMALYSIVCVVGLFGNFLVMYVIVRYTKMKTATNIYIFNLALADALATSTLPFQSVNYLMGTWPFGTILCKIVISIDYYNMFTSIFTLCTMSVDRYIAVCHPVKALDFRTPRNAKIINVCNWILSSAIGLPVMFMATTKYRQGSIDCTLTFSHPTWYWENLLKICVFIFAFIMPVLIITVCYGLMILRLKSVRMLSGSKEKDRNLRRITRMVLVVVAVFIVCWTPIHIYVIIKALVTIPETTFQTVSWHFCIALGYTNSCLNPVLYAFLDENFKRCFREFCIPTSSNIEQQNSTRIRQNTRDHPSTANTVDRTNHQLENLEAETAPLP

Key:
[1] = target: T1, insulin receptor (INSR) 281–299 (Homo sapiens, UniProt P06213); assay: UV spectroscopy binding to control peptide INSR 281–299
T1 construct: INSR 281–299

[2] = target: T2, dopamine D1 receptor (D1DR) 89–98 (Homo sapiens, UniProt P21728); assay: UV spectroscopy binding to receptor peptide D1DR 89–98
T2 construct: D1DR 89–98

[3] = target: intact mu opioid receptors (muOPRs) (Homo sapiens, UniProt P35372); parameters: intact mu opioid receptors (muOPRs); deca-histidine tag (N); made in house; host or cells: E. coli C43 (DE3); conditions: read-out: Kd @ 210 nm, low affinity binding
MuOPR 211–226 = MuOPR 211–226 (Homo sapiens, UniProt P35372); conditions: read-out: Kd @ 200 nm, MuOPR 211–226, low affinity binding
[4] = target: T3, dopamine D1 receptor (D1DR) 170–188 (Homo sapiens, UniProt P21728); assay: UV spectroscopy binding to receptor peptide D1DR 170–188
T3 construct: D1DR 170–188

SMILES | Kd [1] | Kd [2] | Kd [3] | Kd (MuOPR 211–226) | Kd [4]
CN1CC[C@]23c4c5ccc(O)c4O[C@H]2[C@@H](O)C=C[C@H]3[C@H]1C5 [Morphine, morphine sulfate] | > 1 mM |  |  |  | 
CNC[C@H](O)c1ccc(O)c(O)c1 [Epinephrine HCl] |  | 400 µM | 1 mM | 40 µM | 900 µM
NCCc1c[nH]c2ccc(O)cc12 [Serotonin] |  | > 1000 µM |  |  | > 1000 µM
